Like-named read-outs stand apart in the source and are kept apart here.

For data set [1] the following is noted: human plasma, 37° C., 2 days.
The conditions of data set [2]: mouse plasma, 37° C., 2 days.
Data set [3] in a line: in vitro drug release under plasma (pH7.4, PBS) and intracellular conditions (pH5.5, esterase). In kind it is in vitro ADME. Conditions: plasma physiological conditions (pH7.4, PBS), 18 days. Here is the method: The drug release profile of both the conjugates was evaluated under plasma (pH7.4, PBS) and intracellular conditions (pH5.5, esterase).
The conditions of data set [4]: rat plasma, 37° C., 2 days.

Take “dendrimer-GalNAc (4-5)-telmisartan amide (6-7) [D-Tel]”: the drug released in data set [1], in data set [2] and in data set [4] was 3% each time. For the same substance, in data set [3], the drug release result is recorded as “less than 2%”.
With “dendrimer-triantennary GalNAc(4-5)-telmisartan (7-8) [D-TelB]”, the drug release in data set [3] is 14%.

These data come from patent publication US20230233696A1, “TRIANTENNARY N-ACETYLGALACTOSAMINE MODIFIED HYDROXYL POLYAMIDOAMINE DENDRIMERS AND METHODS OF USE THEREOF” (Ashvattha Therapeutics, Inc., priority 2019, published 2023).
